The source of these data is patent US20100029748A1, “Metastasis Promoting Genes and Proteins” (SLOAN-KETTERING INSTITUTE FOR CANCER RESEARCH, priority 2008, published 2010).

The test system of assay [1] is CN34-BrM2 cells. Kind of assay: Brain metastasis in mice after intracardiac inoculation of CN34-BrM2 cells. Format: in vivo. The note with it: mice injected with CN34-BrM2c cells, pre-treated with cetuximab, biweekly i.p. 1 mg; versus vehicle; FIG. 3E. As to the method:
(§1) A cell suspension containing 10^5 CN34 breast cancer cells in a volume of 100 microl was injected in the left cardiac ventricle of anesthetized 6-7 week old Cr:NIH-bg-nu-Xid mice. A cell suspension of 10^4 MDA-MB-231 breast cancer cells in a volume of 100 microl was injected in the left cardiac ventricle of anesthetized 6-7 week old athymic mice. Tumor development was monitored by weekly bioluminescence imaging using the IVIS-200 imaging system from Xenogen as previously described^9. Brain metastatic lesions were confirmed by magnetic resonance imaging (MRI), and histological analysis upon necropsy. Brain lesions were localized by ex vivo bioluminescence imaging, and resected under sterile conditions. Half of the tissue was fixed with 4% paraformaldehyde (PFA), and processed for histological analysis. The other half was minced and placed in culture medium containing a 1:1 mixture of Dulbecco's modified Eagle's (DME) medium/Ham's F12 supplemented with 0.125% collagenase III, 0.1% hyaluronidase. Samples were incubated at room temperature for 4-5 h, with gentle rocking. After collagenase treatment, cells were briefly centrifuged, resuspended in 0.25% trypsin, and incubated for an additional 15 min in a 37° C. water bath. Cells were resuspended in culture medium and allowed to grow to confluence on a 10 cm dish. GFP^+ cells were sorted for further in vivo passage. […]

Assay [2] concerns CN34-BrM2 cells. Nature of the assay: In vitro BBB transmigration assay, CN34-BrM2 cells. Format: cell-based, human. The note with it: cetuximab added to the media, FIG. 3C. The source says: To test the first aspect of this hypothesis, we focused on COX-2 and EGFR ligands, which are present both in the BrMS and the LMS, and were previously implicated in extravasation of breast cancer cells into the lungs^14. We used an in vitro BBB model that is based on human primary endothelial cells and astrocytes, plated on opposite sides of a porous membrane in a tissue culture insert (FIG. 3A)^20. After several days in culture, the endothelial monolayer in the upper side of the membrane differentiated into a tight barrier that resembles a BBB, as determined by its lack of permeability to albumin (FIG. 3B). Cancer cells in suspension were placed in the upper chamber of the inserts, and the BBB transmigration capacity of these cells was determined based on the proportion that migrated into the lower chamber.
Primary human umbilical vein endothelial cells (ScienCell) were co-cultured with human primary astrocytes (HA, ScienCell), on opposite sides of a polylysin-treated, gelatin-coated tissue culture trans-well insert for three days as previously described^20. Briefly, 3 microm pore PET tissue culture inserts (Fisher) were treated with polylysine (1 microg/ml, Millipore) overnight, washed four times, and coated with 0.2% gelatin (Sigma) for a minimum of 30 min. […] Medium from the bottom chamber was collected, and absorbance was measured at 620 nm. […]

The next assay has as its system MDA231-BrM2 cells. Nature of the assay: Brain metastasis in mice after intracardiac inoculation of MDA231-BrM2 cells. Format: in vivo. The conditions noted are these: mice injected with MDA231-BrM2a cells, pre-treated with cetuximab, biweekly i.p. 1 mg; versus vehicle; FIG. 3E. As to the method:
as §1

Turning to cetuximab, the Brain metastasis-free survival result in the assay on CN34-BrM2 cells [1] and in the assay on MDA231-BrM2 cells was “prolonged” each time. The BBB transmigration activity entry in the assay with CN34-BrM2 cells [2] is reported as “markedly decreased”.
